The list shows a part of the results. These assays gave more results; the selection is not random. Activity calls are given as the source filed them. The rule behind the calls is not given here.

The test deals with T1, Parathyroid hormone/parathyroid hormone-related peptide receptor (Homo sapiens) (UniProt Q03431).
T1 sequence (whole entry): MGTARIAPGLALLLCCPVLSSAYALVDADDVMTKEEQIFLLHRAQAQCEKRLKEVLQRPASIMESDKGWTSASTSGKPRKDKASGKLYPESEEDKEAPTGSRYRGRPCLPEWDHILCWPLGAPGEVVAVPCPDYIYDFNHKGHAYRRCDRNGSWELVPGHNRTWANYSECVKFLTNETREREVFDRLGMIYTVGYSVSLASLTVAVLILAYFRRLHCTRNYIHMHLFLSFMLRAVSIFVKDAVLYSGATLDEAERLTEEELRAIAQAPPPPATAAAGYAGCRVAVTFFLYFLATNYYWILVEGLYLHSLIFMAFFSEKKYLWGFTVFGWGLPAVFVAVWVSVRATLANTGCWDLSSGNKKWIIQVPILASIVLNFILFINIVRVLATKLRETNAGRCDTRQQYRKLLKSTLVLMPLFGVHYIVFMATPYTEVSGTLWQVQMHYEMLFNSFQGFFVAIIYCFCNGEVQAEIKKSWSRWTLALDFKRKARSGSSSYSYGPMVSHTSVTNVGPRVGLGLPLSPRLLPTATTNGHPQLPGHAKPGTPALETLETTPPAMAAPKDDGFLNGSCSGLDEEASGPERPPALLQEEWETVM
Description: qHTS of PTHR Inhibitors: Primary Screen. The format is functional. A general note: qHTS replaces the single test concentration by a dilution series.
Take `CC[n+]1c(/C=C/N(C)c2ccccc2)oc2ccc(Cl)cc21`: the Potency entry was “inactive”.

These data come from ChEMBL document CHEMBL1201862, “PubChem BioAssay data set” (2004).
